Data reported in patent US6432984B1, “Pyrazolecarboxylic acid derivatives, their preparation, pharmaceutical compositions containing them” (Sanofi-Synthelabo, priority 1999, dated 2002).

Protein sequences, listed by entry. Tags and fused reporters are not part of them.
UniProt P47746, whole entry: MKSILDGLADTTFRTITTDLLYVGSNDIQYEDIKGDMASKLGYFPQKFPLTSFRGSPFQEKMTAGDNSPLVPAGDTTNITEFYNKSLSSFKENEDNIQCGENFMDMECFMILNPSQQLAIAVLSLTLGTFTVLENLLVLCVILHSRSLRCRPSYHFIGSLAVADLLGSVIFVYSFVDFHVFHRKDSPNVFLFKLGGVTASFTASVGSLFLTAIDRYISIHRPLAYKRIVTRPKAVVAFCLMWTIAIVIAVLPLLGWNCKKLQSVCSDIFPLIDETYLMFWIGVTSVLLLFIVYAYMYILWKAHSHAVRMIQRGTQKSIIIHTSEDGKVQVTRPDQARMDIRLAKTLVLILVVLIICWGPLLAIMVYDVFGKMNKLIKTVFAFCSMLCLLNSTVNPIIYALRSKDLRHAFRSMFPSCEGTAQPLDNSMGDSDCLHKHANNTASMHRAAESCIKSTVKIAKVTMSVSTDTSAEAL

Molecular target: T1, CB1 receptors present in the brain (Mus musculus, UniProt P47746)
T1 construct: from tissue; host or cells: mouse brain
Experiment: duration of occupation of the CB1 receptors present in the brain, in vivo after oral administration
Conditions: mice, oral 10 mg/kg

`Cc1c(C(=O)NN2CCCCC2)nn(-c2ccc(Cl)cc2Cl)c1-c1ccc(Cl)cc1` [SR 141716, N-piperidino-5-(4-chlorophenyl)-1-(2,4-dichlorophenyl)-4-methylpyrazole-3-carboxamide] was tested, and the “% of occupation of the receptors, 1 hour” value (1 hour after administration) was 69% and the “% of occupation of the receptors, 24 hours” value (24 hours after administration) was 4%.
